Positions count from the first letter of the chain named. “And” between values parts separate entries of the source, which are not always exact repeats. Identical values can stand only once.
What was measured:
[1] = molecular target: T1, wild-type hSGLT2 (membrane fraction of hSGLT2 and MAP17 expressing cells) (Homo sapiens, UniProt P31639); assay: SGLT2 inhibitor-binding assay via affinity selection–mass spectrometry, crude membrane, WT; details: for Binding Mean: Eadie–Hofstee
T1 construct: expressed in transfected cells; host or cells: Expi293 cells, crude membrane fraction
T1 sequence (P31639 1-672): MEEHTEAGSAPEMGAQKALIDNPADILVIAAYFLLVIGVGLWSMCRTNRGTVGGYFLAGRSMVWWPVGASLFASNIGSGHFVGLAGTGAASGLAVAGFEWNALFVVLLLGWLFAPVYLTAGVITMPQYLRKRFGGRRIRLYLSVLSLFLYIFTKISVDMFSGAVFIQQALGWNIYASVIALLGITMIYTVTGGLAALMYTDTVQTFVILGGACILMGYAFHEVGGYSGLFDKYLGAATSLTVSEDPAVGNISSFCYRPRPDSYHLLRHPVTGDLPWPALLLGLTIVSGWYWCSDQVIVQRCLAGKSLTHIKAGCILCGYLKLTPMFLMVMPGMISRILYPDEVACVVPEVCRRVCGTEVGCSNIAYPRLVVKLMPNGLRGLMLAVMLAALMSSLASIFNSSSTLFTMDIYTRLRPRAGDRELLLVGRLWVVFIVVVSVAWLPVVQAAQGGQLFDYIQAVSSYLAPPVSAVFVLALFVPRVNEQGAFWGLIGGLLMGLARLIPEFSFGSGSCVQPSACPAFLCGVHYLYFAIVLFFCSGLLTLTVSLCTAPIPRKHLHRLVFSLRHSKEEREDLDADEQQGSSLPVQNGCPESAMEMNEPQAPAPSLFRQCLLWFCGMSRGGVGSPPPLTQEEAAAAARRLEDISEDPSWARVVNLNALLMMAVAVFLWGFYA
T1 sequence (Q13113 1-114 partner): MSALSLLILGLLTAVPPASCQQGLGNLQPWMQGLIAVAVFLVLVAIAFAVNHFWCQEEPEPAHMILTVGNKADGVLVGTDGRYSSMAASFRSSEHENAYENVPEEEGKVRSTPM
Procedure: To examine the inhibition of binding to the crude membrane, mammalian Expi293 cells were co-transfected with the hMAP17 and hSGLT2 plasmids, as described. The cells were collected and disrupted by sonication in a hypotonic buffer (50 mM HEPES–NaOH (pH 7.5), 10 mM KCl and protease inhibitor cocktail) or Na^+-free hypotonic buffer (50 mM Tris–HCl (pH 7.5), 10 mM KCl and protease inhibitor cocktail). The cell debris were removed by centrifugation (2,000g, 5 min, 4 °C). The membrane fraction was collected by ultracentrifugation (112,000g, 30 min, 4 °C) and stored at −80 °C before use. The crude membrane (250 μg per sample) was incubated with SGLT2 inhibitor in an assay buffer (100 mM NaCl and 10 mM HEPES/Tris, pH 7.4) or Na^+-free assay buffer (100 mM choline chloride and 10 mM HEPES/Tris, pH 7.4) at room temperature for 2 h. Reactions were terminated by filtration through a GF/C filter plate (Corning) presoaked in assay buffer containing 0.1% bovine serum albumin. The sample in the filter plate was washed three times with the assay buffer and eluted with acetonitrile: water (80:20, v/v). The extract solution from the filter plate was diluted with water containing candesartan as an internal standard, and the SGLT2 inhibitor concentration was quantified via LC–MS/MS.
(§1) Nonspecific binding was measured using the crude membrane of nontransfected Expi293 cells. Specific binding was calculated by subtracting nonspecific binding from the binding of hSGLT2-expressing cells. Specific binding was normalized to hSGLT2 protein expression levels, measured via FSEC. The equilibrium dissociation constant (Kd) and maximum number of binding sites (Bmax) were calculated via nonlinear regression in GraphPad Prism 8.4.3. The specific binding of the hSGLT2 mutants was normalized to the Bmax of WT hSGLT2.
The concentrations of the extract solution from the filter plate and of the cell lysate were quantified using a tandem mass spectrometry QTRAP6500 System (SCIEX) coupled with an ACQUITY UPLC system (Waters) using the internal standard method. Mobile phases A and B used 10 mM of ammonium bicarbonate and acetonitrile, respectively.

hSGLT2 F453A = molecular target: T2, hSGLT2 F453A (Homo sapiens, UniProt P31639, F453A); assay: SGLT2 inhibitor-binding assay (AS-MS), crude membrane, F453A mutant; design: expressed in transfected cells; host or cells: Expi293 cells, crude membrane fraction; details: for Binding (% of WT Bmax): F453A
T2 sequence (P31639 1-672 F453A): T1 sequence (P31639 1-672) with F453A
T2 sequence (Q13113 1-114 partner): T1 sequence (Q13113 1-114 partner)
Excerpt: hSGLT2 complementary DNA and human MAP17 cDNA were synthesized and codon-optimized for expression in human cell lines. Both cDNAs were cloned into the pcDNA3.4 vector. The hSGLT2 sequence was fused with an N-terminal signal sequence from human trypsinogen 1, a His10 tag, and sfGFP, followed by a human rhinovirus 3C protease (HRV3C protease) recognition site. Point mutations were introduced into this construct using site-directed mutagenesis. These plasmids were utilized for all experimental procedures conducted in this study.
To examine the inhibition of binding to the crude membrane, mammalian Expi293 cells were co-transfected with the hMAP17 and hSGLT2 plasmids, as described. The cells were collected and disrupted by sonication in a hypotonic buffer (50 mM HEPES–NaOH (pH 7.5), 10 mM KCl and protease inhibitor cocktail) or Na^+-free hypotonic buffer (50 mM Tris–HCl (pH 7.5), 10 mM KCl and protease inhibitor cocktail). The cell debris were removed by centrifugation (2,000g, 5 min, 4 °C). The membrane fraction was collected by ultracentrifugation (112,000g, 30 min, 4 °C) and stored at −80 °C before use. […] The extract solution from the filter plate was diluted with water containing candesartan as an internal standard, and the SGLT2 inhibitor concentration was quantified via LC–MS/MS.
as §1, with “The specific binding of the hSGLT2 mutants was normalized to the Bmax of WT hSGLT2.” left out
The concentrations of the extract solution from the filter plate and of the cell lysate were quantified using a tandem mass spectrometry QTRAP6500 System (SCIEX) coupled with an ACQUITY UPLC system (Waters) using the internal standard method. […]

## O=C(CCc1ccc(O)cc1)c1c(O)cc(O)cc1O[C@@H]1O[C@H](CO)[C@@H](O)[C@H](O)[C@H]1O [Phlorizin]
[1]; 100 nM phlorizin, hSGLT2
  Binding (% of hSGLT2): 98.3721 % of hSGLT2 and 101.86 % of hSGLT2 and 99.7674 % of hSGLT2
[1]; WT, phlorizin 25 nM (inferred from ratio, not given)
  Binding Mean: 1.1296
[1]; WT, phlorizin 50 nM (inferred)
  Binding Mean: 1.8248
[1]; WT, phlorizin 100 nM (inferred)
  Binding Mean: 2.4455
[1]; WT, phlorizin 200 nM (inferred)
  Binding Mean: 3.2679
[1]; WT, phlorizin 300 nM (inferred)
  Binding Mean: 3.8001
[1]; WT, phlorizin 500 nM (inferred)
  Binding Mean: 6.2828
[1]; WT, phlorizin 1000 nM (inferred)
  Binding Mean: 9.3101
[1]; WT, phlorizin 3000 nM (inferred)
  Binding Mean: 21.0409
[1]; WT, phlorizin 5000 nM (inferred)
  Binding Mean: 30.2579
[1]; hSGLT2-expressing membrane, two binding sites (high- and low-affinity)
  binding kinetics (in words): biphasic kinetics
[1]; phlorizin at up to 5,000 nM
  saturation of binding to the hSGLT2-expressing membrane: did not saturate
[1]; phlorizin, high-affinity site, WT, mean ± SEM n=3
  Bmax1: 0.356 ± 0.069 pmol/mg-protein
[1]; phlorizin, low-affinity site, WT, mean ± SEM n=3
  Bmax2: 16.8 ± 7.4 pmol/mg-protein
hSGLT2 F453A; F453A single mutant
  phlorizin binding (in words): did not bind
hSGLT2 F453A; Phlorizin 25 nM
  Binding (% of WT Bmax): 0.0000%
hSGLT2 F453A; Phlorizin 50 nM
  Binding (% of WT Bmax): 0.0000%

From paper PMC10803289, “Transport and inhibition mechanism of the human SGLT2–MAP17 glucose transporter” (Nature Structural & Molecular Biology, 2023)
